Molecular target: Delta-type opioid receptor (Rattus norvegicus) (UniProt P33533)
Experiment: Binding affinity for rat delta opioid receptor was evaluated by displacing [3H]- diprenorphine

Protein sequences, listed by entry. Tags and fused reporters are not part of them.
UniProt P33533, whole entry, looked up: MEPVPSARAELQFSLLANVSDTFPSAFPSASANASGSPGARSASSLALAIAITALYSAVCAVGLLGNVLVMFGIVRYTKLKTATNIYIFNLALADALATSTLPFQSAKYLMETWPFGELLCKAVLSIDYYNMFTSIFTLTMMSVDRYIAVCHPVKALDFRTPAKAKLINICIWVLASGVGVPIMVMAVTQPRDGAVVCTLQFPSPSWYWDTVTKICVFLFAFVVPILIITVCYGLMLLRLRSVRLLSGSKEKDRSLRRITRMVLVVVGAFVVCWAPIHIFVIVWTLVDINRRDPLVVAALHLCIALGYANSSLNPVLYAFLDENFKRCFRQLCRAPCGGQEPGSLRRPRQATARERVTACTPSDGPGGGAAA

CN(C(=O)Cc1ccc(Cl)c(Cl)c1)C1CCCCC1N1CCCC1 (stereo unspecified)
Binding affinity: > 25 µM

Reference: ChEMBL document CHEMBL1126934, “Non-peptide ligands for opioid receptors. Design of kappa-specific agonists” (J Med Chem, 1993)
